This test has as its system A549 cells. The test can be described thus: Confocal analysis of filipin-stained cholesterol distribution in A549 cells. The format is cell-based.

B1: IFN-β: interferon-β used to treat A549 cells (protein, UniProt P01574 22-187, looked up)
Interferon beta: MSYNLLGFLQRSSNFQCQKLLWQLNGRLEYCLKDRMNFDIPEEIKQLQQFQKEDAALTIYEMLQNIFAIFRQDSSSTGWNETIVENLLANVYHQINHLKTVLEEKLEKEDFTRGKLMSSLHLKRYYGRILHYLKAKEYSHCAWTIVRVEILRNFYFINRLTGYLRN
On to B1, for which the “cholesterol distribution / lysosomal cholesterol accumulation” value is given as “induced lysosome cholesterol accumulation”.

These data come from paper PMC12416277, “Phytochemical alkaloids orchestrate immunometabolism against viral infections” (National Science Review, 2025).
